Test results taken from patent US10155802B2, “Locally-active anticoagulants and anti-inflammatory agents” (priority 2011, dated 2018).

Biological target: T1, Human α-thrombin (Homo sapiens, UniProt P00734)
T1 construct: Human α-thrombin was purchased from Haemotologic Technologies, Inc., VT, USA; purchased Haemotologic Technologies, Inc., VT, USA
Assay: Thrombin inhibition constants of monovalent active-site moieties and TWE1 (method not described)
Assay type: biochemical
Conditions: monovalent binding moieties for the active site of thrombin

CC1CNc2c(cccc2S(=O)(=O)N[C@@H](CCCNC(=N)N)C(=O)N2CC[C@@H](C)C[C@@H]2C(=O)O)C1 (stereo partly shown) [Argatroban, reference compound]
Ki: 2 ± 0.2 nM
